Experimental data from patent publication US20240067715A1 (CIRCLE33, published 2024).

By UniProt entry, the sequences of proteins in these tests, tags left out. Residues count along the entry.
UniProt P01375, 77-233 limits assumed: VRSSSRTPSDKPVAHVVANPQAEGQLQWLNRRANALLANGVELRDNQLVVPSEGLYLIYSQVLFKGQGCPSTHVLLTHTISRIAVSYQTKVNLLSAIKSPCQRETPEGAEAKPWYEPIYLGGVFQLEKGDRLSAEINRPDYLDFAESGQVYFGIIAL

Target: T1, recombinant human tumor necrosis factor (Cell Sciences, cat #CRT100C) (human, UniProt P01375 77-233)
T1 construct: Coated on ELISA plates; also the immunogen; also called TNF; rhTNF
Test: ELISA on rhTNF-coated plates, pancreatin digest samples

B1: infliximab (recombinant human-mouse chimeric antibody specific for human TNF) (antibody, V domains shown)
VH: EVKLEESGGGLVQPGGSMKLSCVASGFIFSNHWMNWVRQSPEKGLEWVAEIRSKSINSATHYAESVKGRFTISRDDSKSAVYLQMTDLRTEDTGVYYCSRNYYGSTYDYWGQGTTLTVSS
VL: DILLTQSPAILSVSPGERVSFSCRASQFVGSSIHWYQQRTNGSPRLLIKYASESMSGIPSRFSGSGSGTDFTLSINTVESEDIADYYCQQSHSWPFTFGSGTNLEVKR
notes: also called Remicade
B1: binds.
